# Measurements from publication PMC5668925 (Biochemistry and Biophysics Reports, 2015).
# Molecular target: T1, WT (SfTre1, S. frugiperda midgut soluble trehalase, recombinant) (Spodoptera frugiperda, UniProt Q0ZIF5)
# T1 sequence (Q0ZIF5 24-587): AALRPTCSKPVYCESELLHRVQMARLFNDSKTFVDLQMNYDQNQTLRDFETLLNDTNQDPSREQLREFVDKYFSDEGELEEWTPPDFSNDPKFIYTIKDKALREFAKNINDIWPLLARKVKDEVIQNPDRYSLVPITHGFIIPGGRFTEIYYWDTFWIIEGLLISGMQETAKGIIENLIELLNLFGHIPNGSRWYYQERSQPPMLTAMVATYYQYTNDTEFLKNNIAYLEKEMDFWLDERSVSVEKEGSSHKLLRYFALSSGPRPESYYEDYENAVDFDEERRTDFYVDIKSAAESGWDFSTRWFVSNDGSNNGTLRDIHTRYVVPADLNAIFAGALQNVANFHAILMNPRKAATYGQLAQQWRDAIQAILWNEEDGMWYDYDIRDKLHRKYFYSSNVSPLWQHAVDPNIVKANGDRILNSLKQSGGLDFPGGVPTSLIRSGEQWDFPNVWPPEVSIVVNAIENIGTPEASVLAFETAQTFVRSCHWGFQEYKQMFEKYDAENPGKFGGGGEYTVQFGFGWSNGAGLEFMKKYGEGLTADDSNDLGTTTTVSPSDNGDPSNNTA
# Test: Sypro Orange extrinsic fluorescence change
# Assay type: binding
# Settings: 20 mM gentiobiose; pH 6.0, 30 °C
compound,measurement,value
OC[C@H]1O[C@@H](OC[C@H]2OC(O)[C@H](O)[C@@H](O)[C@@H]2O)[C@H](O)[C@@H](O)[C@@H]1O (stereo partly shown) [gentiobiose],Sypro Orange extrinsic fluorescence change,WT is affected only by glucose and gentiobiose
